# Binding of CDR-mutated scFvs to a peptide of the spike HR2 region

Reference: Li et al. 2023, doi:10.1038/s41467-023-39022-2. File: FLAb, binding data.

Antigen: PDVDLGDISGINAS, a 14-residue peptide of the SARS-CoV-2 spike HR2 region.

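These sequences belong to a second round, designed from the earlier measurements on random variants of the parent. Several design methods are mixed in this list. AlphaSeq pools MATa yeast showing the antibodies with MATalpha yeast showing the peptide. Mating (16 h, 30 °C) was followed by selection of diploids and sequencing of their barcodes. The ratio of observed to expected reads was calibrated, replicate by replicate, on BCL2-family standards whose Kd was known from biolayer interferometry. Mating was done six times.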

Parent scFv Ab-14: VH joined to VL by the linker GGGGSGGGGSGGGGS. Changes lie in the light chain CDRs alone.
VH: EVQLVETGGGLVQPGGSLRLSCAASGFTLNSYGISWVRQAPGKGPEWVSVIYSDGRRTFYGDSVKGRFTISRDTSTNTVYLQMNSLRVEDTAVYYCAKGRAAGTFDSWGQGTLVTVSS
VL: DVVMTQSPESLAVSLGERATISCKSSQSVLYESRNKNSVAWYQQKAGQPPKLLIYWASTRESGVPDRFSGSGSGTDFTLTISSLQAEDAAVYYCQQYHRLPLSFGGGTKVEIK

Variants are written as CDR1, CDR2 and CDR3 of the light chain (limits as in the source). Parent: KSSQSVLYESRNKNSVA, WASTRES, QQYHRLPLS.
Values are log10 of the apparent Kd in nM; lower means stronger binding.
A mean of the replicates is given; it leaves out those without a signal.
An entry "nd" has no value in the source: the pair was not observed among the diploids in that replicate. This suggests poor binding but is not conclusive.
A sequence measured in both rounds can read differently, since the two assays cover different ranges.
The authors' rule: three or more of the six replicates give a measured affinity, fewer mean a poor binder.
Nonspecific signal, from three strains lacking the peptide, appeared in 4% of pairings of all light chain designs, centred on 2.64 (5% of these signals below 1.59); values are not corrected for it.

| # | replicates, log10 nM | mean, log10 nM | CDR-L1 | CDR-L2 | CDR-L3 |
|---|---|---|---|---|---|
| 1 | -0.18 0.12 -0.24 -0.34 -0.24 -0.26 | -0.19 | KLSQSVLYESRMKNSVA | DASTRCS | QQYHRLPLE |
| 2 | 1.18 1.26 0.61 1.62 0.98 0.96 | 1.10 | KFSQSGLYESRNTNSVA | WASTRTS | QQYHRLPLS |
| 3 | nd 3.52 0.82 1.35 0.87 1.44 | 1.60 | TIGQMFNGESRNRNSVA | QASTRES | QSYDRLPLS |
| 4 | 0.29 0.94 0.92 0.16 0.80 0.98 | 0.68 | KSGTSVLYESRNKNSVA | GASTRES | QQYHRLPLS |
| 5 | -0.19 -0.23 -0.05 -0.39 -0.13 -0.23 | -0.20 | KLSQSDLYDSRNKNSVA | NASTRES | QQYHRLPLS |
| 6 | 2.23 1.69 1.55 1.36 2.55 2.59 | 1.99 | KISGYLNKESKLKNSVA | EMVNRES | QQYDRLPLS |
| 7 | 1.96 nd nd 1.17 2.01 1.86 | 1.75 | KLRQSMNYESRNKNSVA | NASTRES | QIYHRLPLS |
| 8 | -0.39 -0.72 -0.57 -0.81 -0.82 -0.67 | -0.66 | KVSQSVLYEDRNKNNVA | NASTRES | QQYHRLPLS |
| 9 | -0.22 -0.38 -0.50 -0.56 -0.51 -0.11 | -0.38 | KLSQSDLYESRNKNNVA | DASQRES | QQYHRLPLS |
| 10 | 2.26 1.64 2.28 1.50 1.70 1.84 | 1.87 | KLSASVLYGKRNKNSVA | QASQRCS | QQYHRLPLS |
| 11 | nd 2.62 nd 1.24 1.12 2.75 | 1.93 | SLTNETDGNYGRNNSVA | DAEELMT | QDYFRLPIT |
| 12 | 0.39 0.29 0.34 0.17 0.04 0.40 | 0.27 | KSSISYLEESRNKNSVA | SASTRES | QQYHRLPLS |
| 13 | nd nd 1.63 nd 2.57 1.72 | 1.97 | HITYGMMVHGRHSKSIA | QAETRAK | QQYDRLPLS |
| 14 | 0.67 0.58 0.55 0.79 0.58 0.93 | 0.68 | KSSQSVLYESRNKNSVA | QASTRES | QQYHRLPLS |
| 15 | nd nd nd 0.95 nd 3.12 | 2.03 | TISELYNQAIGMRNNVA | NNQTRED | QQYARLPLS |
| 16 | nd nd nd nd 3.31 nd | 3.31 | IVSQLMLWGLHAKNSIA | EAEMRLN | QQYHRLPLF |
| 17 | 1.03 1.98 1.68 1.22 2.32 1.59 | 1.64 | MVSQLMLWGMHVKNSIA | EAVTRIN | QQYDRLPLF |
| 18 | 0.28 0.33 0.20 0.09 0.23 0.27 | 0.23 | KLSQSVLYESRCKNSVA | EASTRES | QQYHRLPLS |
| 19 | 1.43 1.58 1.68 1.70 1.23 1.53 | 1.53 | KSSISMLYESRMKNSVA | EASTRES | QQYHRLPLS |
| 20 | 0.03 0.15 -0.37 -0.19 -0.10 0.03 | -0.07 | KSSQSFLYESRNQNSVA | NASTRES | QQYHRLPLS |
| 21 | 0.39 0.75 0.38 0.32 0.55 0.68 | 0.51 | KISQSVEYQQRNQNSVA | SASTRLS | QQYHRLPLS |
| 22 | 0.47 0.26 0.60 -0.06 0.56 0.49 | 0.39 | KLYEAGEESSKVDRSIA | EMITRQE | QQYQRLPLS |
| 23 | 0.65 1.09 0.90 0.86 1.14 1.47 | 1.02 | HMSMLTLMGSRERNSVA | QMTTREN | QQYDRLPLA |
| 24 | -0.04 -0.15 -0.10 -0.35 -0.34 -0.04 | -0.17 | KLSQSYLMGDRNKNSVA | QASTREM | QQYHRLPLS |
| 25 | 0.54 0.09 -0.08 0.02 0.26 0.85 | 0.28 | KLSQSNLMEDENKNSVA | AASTRES | QQYHRLPLS |
| 26 | -0.08 -0.10 -0.15 -0.33 -0.16 -0.16 | -0.16 | KVSQSWLYESRNKNAVA | EASTRES | QQYHRLPLS |
| 27 | 0.32 1.19 0.43 0.83 nd 0.86 | 0.73 | QITMLLNFESYKINNVA | QMETRVN | QQYDRLPLS |
| 28 | 0.44 0.05 0.35 0.30 0.41 0.57 | 0.35 | KIGATLNTLYEQKNNVA | DLVEREN | QQYFRLPLS |
| 29 | -0.36 -0.59 -0.51 -0.75 -0.71 -0.53 | -0.58 | KLEQSVLYESRNKNNVA | EASTRES | QQYHRLPLS |
| 30 | 0.61 0.76 0.95 0.89 0.50 1.08 | 0.80 | KMTTNLEHQASRKNSIA | EADMVAA | QDYMRLPLI |
| 31 | 0.24 0.29 0.25 0.14 0.11 0.30 | 0.22 | KIGATLNMLEHKQNNVA | DLVTREN | QQYHRLPLS |
| 32 | -0.35 -0.39 -0.58 -0.76 -0.26 -0.34 | -0.45 | HLSMSVLYESRNKNSVA | NASTRES | QQYHRLPLS |
| 33 | 0.70 0.36 0.25 0.41 0.31 0.41 | 0.41 | SLIPFEQQIMKDLNNIA | NTQVRAT | QQYMRLPFM |
| 34 | 0.67 0.17 0.18 0.83 0.34 0.65 | 0.47 | KVSEFMRGLSMRKDSIA | DNNTRSN | QQYDRLPLS |
| 35 | 0.57 1.07 0.89 -0.01 0.78 0.43 | 0.62 | KIGMTLNQLQEKKNNVA | DLVMREN | QQYFRLPLS |
| 36 | 0.34 0.23 0.37 0.14 0.21 0.26 | 0.26 | KLQQSWLYESRNKNSVA | NASTRFS | QQYHRLPLS |
| 37 | nd nd nd nd nd nd | nd | KFSQSVLYESSNCNSVA | WASTRFS | QQSHRLPLD |
| 38 | 0.93 1.01 1.51 1.23 1.20 1.71 | 1.26 | KVQQSVLYESRNKNSVA | WASTREC | QQYHRLPLS |
| 39 | -0.17 0.75 0.19 1.35 0.49 0.80 | 0.57 | KSGQGVLYESRNKNSVA | GASQRFS | QQYHRLPLS |
| 40 | -0.14 -0.20 -0.26 -0.49 -0.44 -0.25 | -0.30 | KLYQSALYESRNKNSVA | GASTRES | QQYHRLPLS |
| 41 | 0.10 -0.13 -0.30 -0.19 -0.14 0.20 | -0.08 | KLYQSQLYLSRNVNAVA | NASQRMS | QQYHRLPLS |
| 42 | 0.87 0.68 0.64 0.71 0.67 1.08 | 0.78 | KISQSVLYESRNENSVA | FASTRES | QQYHRLPLS |
| 43 | 1.83 1.17 nd 1.45 3.14 1.76 | 1.87 | KVSDMMAFLSRNRNSVA | DNSTRGS | QQYHRLPLS |
| 44 | nd 2.05 2.20 nd 2.29 1.32 | 1.96 | MVSQLMVWGLHTKNSIA | EAQTRLN | QQYDRLPLF |
| 45 | nd nd nd nd nd nd | nd | ILYDSALTLSRNKNSVA | DNSTRES | QQYDRLPLS |
| 46 | 1.12 1.80 1.42 2.18 1.36 1.15 | 1.50 | KLIQSVAMSSRNKDSIA | DNSTREY | QQYHRLPLS |
| 47 | 2.45 3.64 nd 3.26 2.63 3.17 | 3.03 | KISQMFNVGTKNTSSLA | EMNTRGM | QDYHRLPLS |